The chains behind the UniProt entries cited, without tags or fusion partners.
UniProt P50406, whole entry: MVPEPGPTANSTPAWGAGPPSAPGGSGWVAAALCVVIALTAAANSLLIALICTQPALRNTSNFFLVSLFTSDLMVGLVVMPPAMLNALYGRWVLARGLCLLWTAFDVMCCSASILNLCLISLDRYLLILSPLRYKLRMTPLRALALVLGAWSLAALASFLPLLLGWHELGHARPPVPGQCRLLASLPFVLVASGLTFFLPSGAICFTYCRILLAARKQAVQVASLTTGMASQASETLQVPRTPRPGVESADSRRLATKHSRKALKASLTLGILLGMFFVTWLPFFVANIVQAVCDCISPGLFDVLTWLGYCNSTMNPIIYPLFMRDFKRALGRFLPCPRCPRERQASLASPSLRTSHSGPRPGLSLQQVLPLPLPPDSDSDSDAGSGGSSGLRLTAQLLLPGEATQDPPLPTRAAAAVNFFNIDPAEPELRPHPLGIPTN

One test addresses T1, human 5-HT6 receptor (Homo sapiens, UniProt P50406).
Assay: not given
Conditions: ratio of Ki to that of PUC-10 (14.6 nM).
As to `COc1ccccc1N1CCN(CC(O)c2cn(S(=O)(=O)c3cccc4ccccc34)c3ccc(F)cc23)CC1` (stereo not drawn) [4d, 1-(5-fluoro-1-(naphthalen-1-ylsulfonyl)-1H-indol-3-yl)-2-(4-(2-methoxyphenyl)piperazin-1-yl)ethan-1-ol], the “diminished affinity compared to PUC-10” value was found to be 4 fold.
For `COc1ccc2c(c1)c(C(O)CN1CCN(c3ccccc3OC)CC1)cn2S(=O)(=O)c1cccc2ccccc12` (stereo not drawn) [4l, 1-(5-methoxy-1-(naphthalen-1-ylsulfonyl)-1H-indol-3-yl)-2-(4-(2-methoxyphenyl)piperazin-1-yl)ethan-1-ol], the “diminished affinity compared to PUC-10” value is 11 fold.

Another test has as its target T1, human 5-HT6 receptor. The test can be described thus: biochemical.
Conditions: not given
Compound `COc1ccc2c(c1)c(C(O)CN1CCOCC1)cn2S(=O)(=O)c1cccc2ccccc12` (stereo not drawn) [4m, 1-(5-methoxy-1-(naphthalen-1-ylsulfonyl)-1H-indol-3-yl)-2-morpholinoethan-1-ol] yielded a Ki of 247 nM. This lies in the sub-micromolar range.
Consider `COc1ccc2c(c1)c(C(O)CN1CCOCC1)cn2S(=O)(=O)c1ccc(C)cc1` (stereo not drawn) [4q, 1-(5-methoxy-1-tosyl-1H-indol-3-yl)-2-morpholinoethan-1-ol], for which the Ki is 4020 nM.
Still for that read-out and setting: as for `O=S(=O)(c1ccc(I)cc1)n1cc(C(O)CN2CCN(c3ccccn3)CC2)c2cc(F)ccc21` (stereo not drawn) [4b, 1-(5-fluoro-1-((4-iodophenyl)sulfonyl)-1H-indol-3-yl)-2-(4-(pyridin-2-yl)piperazin-1-yl)ethan-1-ol], the figure is 3630 nM; as for `COc1ccc2c(c1)c(C(O)CN1CCOCC1)cn2S(=O)(=O)c1ccc(I)cc1` (stereo not drawn) [4k, 1-(1-((4-iodophenyl)sulfonyl)-5-methoxy-1H-indol-3-yl)-2-morpholinoethan-1-ol], 403 nM; as for `O=S(=O)(c1cccc2ccccc12)n1cc(C(O)CN2CCOCC2)c2cc(F)ccc21` (stereo not drawn) [4f, 1-(5-fluoro-1-(naphthalen-1-ylsulfonyl)-1H-indol-3-yl)-2-morpholinoethan-1-ol], 683 nM.
Same read-out and setting: as for `COc1ccc(S(=O)(=O)n2cc(C(O)CN3CCOCC3)c3cc(OC)ccc32)cc1` (stereo not drawn) [4t, 1-(5-methoxy-1-((4-methoxyphenyl)sulfonyl)-1H-indol-3-yl)-2-morpholinoethan-1-ol], the figure is 7490 nM; as for `COc1ccccc1N1CCN(CC(O)c2cn(S(=O)(=O)c3cccc4ccccc34)c3ccc(F)cc23)CC1` (stereo not drawn) [4d, 1-(5-fluoro-1-(naphthalen-1-ylsulfonyl)-1H-indol-3-yl)-2-(4-(2-methoxyphenyl)piperazin-1-yl)ethan-1-ol], 58.3 nM.
With `COc1ccc2c(c1)c(C(O)CN1CCN(c3ccccn3)CC1)cn2S(=O)(=O)c1ccc(C)cc1` (stereo not drawn) [4p, 1-(5-methoxy-1-tosyl-1H-indol-3-yl)-2-(4-(pyridin-2-yl)piperazin-1-yl)ethan-1-ol], affinity was put at a Ki of 2190 nM.
On the same count and under the same terms, as for `O=S(=O)(c1ccc(I)cc1)n1cc(C(O)CN2CCOCC2)c2cc(F)ccc21` (stereo not drawn) [4c, 1-(5-fluoro-1-((4-iodophenyl)sulfonyl)-1H-indol-3-yl)-2-morpholinoethan-1-ol], the figure is 12500 nM; as for `COc1ccc2c(c1)c(C(O)CN1CCN(c3ccccc3OC)CC1)cn2S(=O)(=O)c1ccc(C)cc1` (stereo not drawn) [4o, 1-(5-methoxy-1-tosyl-1H-indol-3-yl)-2-(4-(2-methoxyphenyl)piperazin-1-yl)ethan-1-ol], 972 nM.
On the same count and under the same terms, in the case of `O=S(=O)(c1cccc2ccccc12)n1cc(C(O)CN2CCN(c3ccccn3)CC2)c2cc(F)ccc21` (stereo not drawn) [4e, 1-(5-fluoro-1-(naphthalen-1-ylsulfonyl)-1H-indol-3-yl)-2-(4-(pyridin-2-yl)piperazin-1-yl)ethan-1-ol] it was 801 nM; in that of `COc1ccc(S(=O)(=O)n2cc(C(O)CN3CCN(c4ccccc4OC)CC3)c3cc(F)ccc32)cc1` (stereo not drawn) [4h, 1-(5-fluoro-1-((4-methoxyphenyl)sulfonyl)-1H-indol-3-yl)-2-(4-(2-methoxyphenyl)piperazin-1-yl)ethan-1-ol], 850 nM; in that of `COc1ccc(S(=O)(=O)n2cc(C(O)CN3CCN(c4ccccc4OC)CC3)c3cc(OC)ccc32)cc1` (stereo not drawn) [4u, 1-(5-methoxy-1-((4-methoxyphenyl)sulfonyl)-1H-indol-3-yl)-2-(4-(2-methoxyphenyl)piperazin-1-yl)ethan-1-ol], 270 nM.
The same measure, in the same setting: in the case of `COc1ccc2c(c1)c(C(O)CN1CCN(c3ccccc3OC)CC1)cn2S(=O)(=O)c1ccc(Br)s1` (stereo not drawn) [4r, 1-(1-((5-bromothiophen-2-yl)sulfonyl)-5-methoxy-1H-indol-3-yl)-2-(4-(2-methoxyphenyl)piperazin-1-yl)ethan-1-ol] it was 167 nM.
Regarding `O=S(=O)(c1cccc2ccccc12)n1cc(C(O)CN2CCN(c3ncccn3)CC2)c2cc(F)ccc21` (stereo not drawn) [4g, 1-(5-fluoro-1-(naphthalen-1-ylsulfonyl)-1H-indol-3-yl)-2-(4-(pyrimidin-2-yl)piperazin-1-yl)ethan-1-ol], the affinity corresponds to a Ki of 1440 nM. This Ki lies about 8.6-fold higher than the previous one.
The same measure, in the same setting: as for `COc1ccc2c(c1)c(C(O)CN1CCN(c3ccccn3)CC1)cn2S(=O)(=O)c1cccc2ccccc12` (stereo not drawn) [4n, 1-(5-methoxy-1-(naphthalen-1-ylsulfonyl)-1H-indol-3-yl)-2-(4-(pyridin-2-yl)piperazin-1-yl)ethan-1-ol], the figure is 153 nM; as for `COc1ccc2c(c1)c(C(O)CN1CCN(c3ccccc3OC)CC1)cn2S(=O)(=O)c1ccc(I)cc1` (stereo not drawn) [4j, 1-(1-((4-iodophenyl)sulfonyl)-5-methoxy-1H-indol-3-yl)-2-(4-(2-methoxyphenyl)piperazin-1-yl)ethan-1-ol], 289 nM; as for `COc1ccc(S(=O)(=O)n2cc(C(O)CN3CCN(c4ccccn4)CC3)c3cc(OC)ccc32)cc1` (stereo not drawn) [4v, 1-(5-methoxy-1-((4-methoxyphenyl)sulfonyl)-1H-indol-3-yl)-2-(4-(pyridin-2-yl)piperazin-1-yl)ethan-1-ol], 2180 nM.
Still for that read-out and setting: as for `COc1ccccc1N1CCN(CC(O)c2cn(S(=O)(=O)c3ccc(I)cc3)c3ccc(F)cc23)CC1` (stereo not drawn) [4a, 1-(5-fluoro-1-((4-iodophenyl)sulfonyl)-1H-indol-3-yl)-2-(4-(2-methoxyphenyl)piperazin-1-yl) ethan-1-ol], the figure is 390 nM; as for `COc1ccc2c(c1)c(C(O)CN1CCOCC1)cn2S(=O)(=O)c1ccc(Br)s1` (stereo not drawn) [4s, 1-(1-((5-bromothiophen-2-yl)sulfonyl)-5-methoxy-1H-indol-3-yl)-2-morpholinoethan-1-ol], 130 nM.
The same measure, in the same setting: in the case of `COc1ccccc1N1CCN(CC(O)c2cn(S(=O)(=O)c3ccc(Br)s3)c3ccc(F)cc23)CC1` (stereo not drawn) [4i, 1-(1-((5-bromothiophen-2-yl)sulfonyl)-5-fluoro-1H-indol-3-yl)-2-(4-(2-methoxyphenyl)piperazin-1-yl)ethan-1-ol] it was 381 nM; in that of `COc1ccc2c(c1)c(C(O)CN1CCN(c3ccccc3OC)CC1)cn2S(=O)(=O)c1cccc2ccccc12` (stereo not drawn) [4l, 1-(5-methoxy-1-(naphthalen-1-ylsulfonyl)-1H-indol-3-yl)-2-(4-(2-methoxyphenyl)piperazin-1-yl)ethan-1-ol], 160 nM.

Broadly, the Ki is a measure of affinity in units of concentration, obtained from inhibition or displacement. Low readings indicate a stronger hold on the target, high ones a looser hold on the target.
